Measurements published in doi:10.1101/798769 (bioRxiv, 2019).

Molecular target: T1, NANP 5.5-mer peptide, NP(NANP)5 (Plasmodium falciparum)
T1 chain: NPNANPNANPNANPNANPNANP
Assay: SPR

B1: mAb 317 (recombinant human IgG1, kappa) (antibody, V domains shown)
VH: QMQLVESGGGVVQPGRSLRLSCTASGFTFSTYAMHWVRQSPGQGLQWVAVISYHSTNKYYEDSVRGRFTISRDNSKNTLYLQMNSLRAEDTAVYYCARDGYSSSFFDFWGQGTLVTVSS
VL: DIQMTQSPSTLSASVGDRVAITCRASQSISRWLAWYQQQPGKAPKLLMSGASVLESGVPSRFSGSGSGTEFTLTISSLQPDDFATYYCQHYNSYFVTFGQGTKVEIK
  Kd: < 0.1 nM
